Literature values in patent US6485955B1, “Quiescent cell dipeptidyl peptidase: a novel cytoplasmic serine protease” (The Trustees of Tufts University, priority 1997, dated 2002).

Chains of the proteins cited; added tags and fusions are not shown.
UniProt P27487, whole entry: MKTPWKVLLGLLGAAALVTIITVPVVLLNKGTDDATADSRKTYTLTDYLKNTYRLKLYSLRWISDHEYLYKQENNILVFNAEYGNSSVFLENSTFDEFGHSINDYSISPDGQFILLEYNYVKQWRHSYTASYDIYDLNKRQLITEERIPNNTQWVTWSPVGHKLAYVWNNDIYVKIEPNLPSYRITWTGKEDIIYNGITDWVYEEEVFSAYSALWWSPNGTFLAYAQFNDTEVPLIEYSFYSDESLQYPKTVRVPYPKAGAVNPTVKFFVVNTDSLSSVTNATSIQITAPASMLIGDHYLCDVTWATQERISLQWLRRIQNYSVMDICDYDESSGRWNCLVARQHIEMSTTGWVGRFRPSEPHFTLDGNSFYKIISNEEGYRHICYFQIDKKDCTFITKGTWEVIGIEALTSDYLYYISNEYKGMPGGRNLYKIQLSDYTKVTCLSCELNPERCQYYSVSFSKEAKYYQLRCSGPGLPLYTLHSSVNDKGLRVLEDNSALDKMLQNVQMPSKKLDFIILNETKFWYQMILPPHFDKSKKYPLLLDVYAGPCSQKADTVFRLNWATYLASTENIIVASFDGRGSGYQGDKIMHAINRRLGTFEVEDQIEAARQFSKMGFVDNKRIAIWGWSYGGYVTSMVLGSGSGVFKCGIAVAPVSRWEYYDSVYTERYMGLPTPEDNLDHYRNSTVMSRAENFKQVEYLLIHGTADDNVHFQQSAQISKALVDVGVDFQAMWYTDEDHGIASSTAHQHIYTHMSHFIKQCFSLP

Biological target: DPIV (Homo sapiens, UniProt P27487)
Conditions: cited from earlier work

In the case of CC(C)[C@H](N)C(=O)N1CCC[C@H]1B(O)O [VbP, Val-boroPro], the DPIV inhibition is listed as “highly potent inhibitor”.
